Laboratory results: patent US10188659B2, “IGF-1R signaling pathway inhibitors useful in the treatment of neurodegenerative diseases” (YISSUM RESEARCH DEVELOPMENT COMPANY OF THE HEBREW …, priority 2013, dated 2019)

Test system: IRS1 and IRS2
Test: IRS1/IRS2 Ser-phosphorylation and degradation, Western blot in A375 cells

## Oc1cc(CNC(=S)/C=C/c2ccc(O)c(O)c2Br)cc(O)c1O [Compound 39]
  time of Ser-phosphorylation and degradation of IRS1 and IRS2 after exposure: 2 to 8 h
